For this test, the system named is Brevibacterium lactofermentum KFCC-10680. Briefly: Death rate after NTG mutagen treatment. The conditions noted are these: NTG final concentration 200 mg/l, 20 minutes; spread on minimal medium (Medium 1).

Turning to `CN(N=O)C(=N)N[N+](=O)[O-]`, the death rate worked out at 85%.

The values are drawn from patent US7192760B2 (priority 2000, dated 2007).
